In PubChem BioAssay AID1457 (National Center for Advancing Translational Sciences (NCATS), 2008):
The list shows a part of the results, in another mix than the full data. Active and inactive are the calls of the source. Calls come from the whole dose curve; as a rule, active = well fitted inhibition curve with a large enough effect; inconclusive = small, poorly fitted or top-dose-only effect; inactive = no such curve, though single readings can be large or run the other way.

Assay: qHTS Assay for Identifying the Cell-Membrane Permeable IMPase Inhibitors: Potentiation with Lithium;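 note: IP1 builds up when IMPase is blocked and the TR-FRET signal falls; plate controls were basal vehicle for no effect and high inhibitor control for full effect; nearly all actives have a fitted effect of over 50% in size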
Details: CHO-M1 cells, IP1 TR-FRET (IP-One), carbachol + lithium; at 59.4 µM (top of the series) unless noted

Q: Which activity, negative = IMPase inhibition does the source give for `CCOP(=O)(Nc1ccccc1)OCC` here?
A: inactive: -0.118% [at 38.3 µM]

Q: With `[N-]=[N+]=NCC(O)CN=[N+]=[N-]` (stereo not given) as the compound, how does the activity, negative = IMPase inhibition read?
A: inactive: 0.0081%

Q: For `C(Cc1nn[nH]n1)c1nn[nH]n1`, which activity, negative = IMPase inhibition is on record?
A: inactive: -5.91%

Q: For `CCN(N=Nc1nonc1N)c1nonc1N`, which activity, negative = IMPase inhibition is on record?
A: inactive: 7.04%

Q: For `Cc1ccc(N/C(=N/P(=O)(N2CCOCC2)N2CCOCC2)N2CCOCC2)cc1`, which activity, negative = IMPase inhibition is on record?
A: inactive: 1.36%

Q: For `NC(=O)c1cc([N+](=O)[O-])cc([N+](=O)[O-])c1N`, which activity, negative = IMPase inhibition is on record?
A: inactive: 6.21%

Q: With `CN1CCCC(OC(=O)C(c2ccccc2)c2ccccc2)C1` (stereo not given) as the compound, how does the activity, negative = IMPase inhibition read?
A: inactive: 32.3%

Q: With `Clc1ccc(Cl)c(NC2=NCC(CBr)S2)c1` (stereo not given) as the compound, how does the activity, negative = IMPase inhibition read?
A: inactive: 17.9%

Q: With `COc1ccccc1OP(=O)(Nc1ccc(C)cn1)Oc1ccccc1OC` as the compound, how does the activity, negative = IMPase inhibition read?
A: inactive: 12.7%

Q: For `O=[N+]([O-])c1ccc(C[As](=O)(O)O)cc1`, which activity, negative = IMPase inhibition is on record?
A: inactive: -7.75%

Q: With `O=C(NC(Sc1ccncn1)C(Cl)(Cl)Cl)c1ccccc1` (stereo not given) as the compound, how does the activity, negative = IMPase inhibition read?
A: inactive: -1.76%

Q: With `Cc1c2non([O-])c-2c(C)[n+](=O)[n+]1[O-]` as the compound, how does the activity, negative = IMPase inhibition read?
A: inactive: 18.4% [at 38.3 µM]

Q: For `Oc1ccccc1CNc1ccccn1`, which activity, negative = IMPase inhibition is on record?
A: inactive: 26.1% [at 38.3 µM]

Q: With `CC(C)CC(=O)NC(Sc1ccc(Cl)cc1)C(Cl)(Cl)Cl` (stereo not given) as the compound, how does the activity, negative = IMPase inhibition read?
A: inactive: 10.7% [at 38.3 µM]

Q: For `NCC[C@@H](N)CSP(=O)(O)O`, which activity, negative = IMPase inhibition is on record?
A: inactive: 1.56%

Q: Which activity, negative = IMPase inhibition does the source give for `CCOc1ccc(C2=NCC(CBr)S2)cc1` (stereo not given) here?
A: inactive: 25.3%

Q: Which activity, negative = IMPase inhibition does the source give for `O=P1(Nc2nc3ccc(Cl)cc3s2)COc2ccccc2O1` (stereo not given) here?
A: inactive: 5.49% [at 38.3 µM]

Q: For `CC(C)(C)C(=O)NC(Sc1ccccc1)C(Cl)(Cl)Cl` (stereo not given), which activity, negative = IMPase inhibition is on record?
A: inactive: 6.93%

Q: For `CC(=O)Nc1ccc(Oc2c([N+](=O)[O-])cc([N+](=O)[O-])cc2[N+](=O)[O-])cc1`, which activity, negative = IMPase inhibition is on record?
A: inactive: -3.36%

Q: With `CCOC(=O)NC(Sc1ccccc1)C(Cl)(Cl)Cl` (stereo not given) as the compound, how does the activity, negative = IMPase inhibition read?
A: inactive: -0.426% [at 38.3 µM]

Q: With `c1ccc(-c2nn[nH]n2)c(-c2nn[nH]n2)c1` as the compound, how does the activity, negative = IMPase inhibition read?
A: inactive: -2.98%

Q: For `O=C(NC1CCS(=O)(=O)C1)NP(=S)(Oc1ccccc1)Oc1ccccc1` (stereo not given), which activity, negative = IMPase inhibition is on record?
A: inactive: 12.4%

Q: With `CCNC(=S)/N=C(\N)N[N+](=O)[O-]` as the compound, how does the activity, negative = IMPase inhibition read?
A: inactive: -2.02%

Q: For `CCC(=O)N1C2C3N(C(=O)CC)C1C1N(C(=O)CC)C(C(N1C(=O)CC)N3C(=O)CC)N2C(=O)CC`, which activity, negative = IMPase inhibition is on record?
A: inactive: 1.22% [at 38.3 µM]

Q: Which activity, negative = IMPase inhibition does the source give for `CC(=O)NC(SC(=S)N(CC(C)C)CC(C)C)C(Cl)(Cl)Cl` (stereo not given) here?
A: inactive: 9.63%

Q: With `Cc1ccc(OP(=O)(Nc2ccccn2)Oc2ccc(C)cc2)cc1` as the compound, how does the activity, negative = IMPase inhibition read?
A: inactive: 22%

Q: Which activity, negative = IMPase inhibition does the source give for `COC(=O)c1cc2c(s1)N=C(c1ccccc1)N(C)P2(=O)N1CCOCC1` (stereo not given) here?
A: inactive: -10.7% [at 38.3 µM]

Q: Which activity, negative = IMPase inhibition does the source give for `O=c1c2cc([N+](=O)[O-])ccc2[nH]c2c([N+](=O)[O-])cc([N+](=O)[O-])cc12` here?
A: inactive: 25.6%

Q: Which activity, negative = IMPase inhibition does the source give for `O=P(Nc1ccccn1)(c1ccc(Br)cc1)c1ccc(Br)cc1` here?
A: inactive: 0.485%

Q: For `CN(C(=O)Cc1ccccc1)[C@H]1CC[C@@]2(CCCO2)C[C@@H]1N1CCCC1`, which activity, negative = IMPase inhibition is on record?
A: inactive: 1.24%

Q: With `Cc1cc([N+](=O)[O-])cc([N+](=O)[O-])c1O` as the compound, how does the activity, negative = IMPase inhibition read?
A: inactive: 12.1%

Q: With `[N-]=[N+]=Nc1ccc([As](=O)(O)O)cc1` as the compound, how does the activity, negative = IMPase inhibition read?
A: inactive: -2.03%

Q: With `CC(=O)NC(SC(=S)N(C)C)C(Cl)(Cl)Cl` (stereo not given) as the compound, how does the activity, negative = IMPase inhibition read?
A: inactive: -3.75%

Q: Which activity, negative = IMPase inhibition does the source give for `O=C(OC1CN2CCC1CC2)c1cccc(Cl)c1` (stereo not given) here?
A: inactive: 51.3% [at 38.3 µM]

Q: Which activity, negative = IMPase inhibition does the source give for `C(Cc1nn[nH]n1)Cc1nn[nH]n1` here?
A: inactive: -3.01%

Q: With `O=P(Nc1nccs1)(c1ccccc1)c1ccccc1` as the compound, how does the activity, negative = IMPase inhibition read?
A: inactive: 24.8% [at 38.3 µM]

Q: With `CC(C)C(=O)NC(Sc1ccccc1)C(Cl)(Cl)Cl` (stereo not given) as the compound, how does the activity, negative = IMPase inhibition read?
A: inactive: 9.85%

Q: Which activity, negative = IMPase inhibition does the source give for `c1nnnn1CCn1cnnn1` here?
A: inactive: 18.7% [at 38.3 µM]

Q: With `CN1CCC[C@H](OC(=O)C(c2ccccc2)c2ccccc2)C1` as the compound, how does the activity, negative = IMPase inhibition read?
A: inactive: 22.1%

Q: For `C[C@@H](O)COc1ccc([As](=O)(O)O)cc1N`, which activity, negative = IMPase inhibition is on record?
A: inactive: 12.7%
